Data: paper PMC8456950, “Structure‐Guided Design of G‐Protein‐Coupled Receptor Polypharmacology” (Angewandte Chemie (International Ed. in English), 2021)

Chains of the proteins cited; added tags and fusions are not shown. Lines headed by an entry give the natural chain unless they say otherwise; changes in a name come on top.
UniProt P14416, whole entry: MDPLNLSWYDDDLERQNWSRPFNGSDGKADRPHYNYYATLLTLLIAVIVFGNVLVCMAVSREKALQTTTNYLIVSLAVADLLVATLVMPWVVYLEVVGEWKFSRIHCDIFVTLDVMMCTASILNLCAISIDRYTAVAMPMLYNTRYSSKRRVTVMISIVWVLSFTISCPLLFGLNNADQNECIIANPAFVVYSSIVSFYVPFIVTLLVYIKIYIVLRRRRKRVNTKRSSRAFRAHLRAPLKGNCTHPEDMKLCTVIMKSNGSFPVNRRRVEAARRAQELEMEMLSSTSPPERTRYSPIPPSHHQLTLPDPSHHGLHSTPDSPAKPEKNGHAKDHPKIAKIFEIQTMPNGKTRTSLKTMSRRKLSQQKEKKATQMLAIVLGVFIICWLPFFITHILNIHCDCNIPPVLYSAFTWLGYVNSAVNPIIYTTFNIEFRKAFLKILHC

How the values were obtained:
[1] = target: Human A2AAR (Homo sapiens, UniProt P29274); assay: A2AAR competition binding ([3H]-ZM241385 displacement); settings: read-out: A2AAR binding affinity Ki; radioligand displacement, mean±SEM of three experiments in duplicate; tested form: TFA
[2] = target: Human D2R (Homo sapiens, UniProt P14416); assay: D2R competition binding ([3H]-spiperone displacement); settings: read-out: D2R binding affinity Ki; radioligand displacement, mean±SEM of three experiments in duplicate; tested form: TFA

Row | Ki [1] [nM] | Ki [2] [nM] | SMILES
1 | 840 | 1900 | COc1ccc(C)c2sc(NC(=O)CCN(C)C3Cc4ccccc4C3)nc12
2 | 770 | 2700 | COc1ccc(Cl)c2sc(NC(=O)CCN(C)C3Cc4ccccc4C3)nc12
